AlphaSeq binding of Ab-14 heavy chain variants to a spike HR2 peptide

The measurements come from Li et al. 2023 (doi:10.1038/s41467-023-39022-2) through the FLAb antibody collection.

Antigen: PDVDLGDISGINAS, a 14-residue peptide of the SARS-CoV-2 spike HR2 region.

Parent: Ab-14, a human scFv built as VH, a 15-residue (Gly4Ser)3 linker, VL. Only the CDRs of the heavy chain vary.
VH: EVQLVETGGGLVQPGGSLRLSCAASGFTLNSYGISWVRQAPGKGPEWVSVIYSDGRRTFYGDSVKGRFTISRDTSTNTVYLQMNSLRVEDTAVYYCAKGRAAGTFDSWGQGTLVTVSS
VL: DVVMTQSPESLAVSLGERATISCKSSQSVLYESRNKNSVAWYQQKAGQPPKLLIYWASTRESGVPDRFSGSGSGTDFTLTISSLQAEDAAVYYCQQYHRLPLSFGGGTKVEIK

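Designed CDR sequences, proposed from the first random library and measured here. Several design methods are mixed in this list. Affinity was read by AlphaSeq, a pooled yeast mating assay with surface-displayed partners. Pairs that bind mate more often; barcode pairs of the diploids are counted by sequencing. Each replicate has its own calibration line, from reference interactions of the BCL2 family. Each pool was mated in six replicate cultures.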

Positions count from residue 1 of the parent VH; T28C puts C in place of T. Variants here have at most six changes. The Kd shown is the geometric mean over detected replicates; a lower Kd is a better binder. "no signal" means that the variant was in the library but no mating with the target was seen in any replicate; the authors take this as a sign of poor binding, and no number exists.

For T28C+N30P+S31E+F59S+K65A, the assay gave no signal (0 of 6 replicates; controls 0 of 18). Variant S31D+G61S+T104Q gave no signal (0 of 6 replicates; controls 0 of 18). Variant S53A+G61S+R100P+D106S showed 440 nM (1 of 6 replicates; controls 0 of 18). Variant G26K+S31E+G103V+S107Q showed no signal (0 of 6 replicates; controls 0 of 18). Variant T28P+G61K+R100K gave no signal (0 of 6 replicates; controls 0 of 18). Variant G33L+G61D+R100Q+A101L+F105I showed no signal (0 of 6 replicates; controls 0 of 18). Variant S31K+Y60I+R100Q showed 140 nM (1 of 6 replicates; controls 0 of 18).

Variant F27E+R56Q+A102K+G103D+T104L showed no signal (0 of 6 replicates; controls 0 of 18). Variant R100Q+S107T showed 34 nM (9 of 12 replicates; controls 0 of 36). Variant S31E+G61H+A101Y showed 5.0 nM (6 of 6 replicates; controls 0 of 18). With R56L+S63D+G99R+R100S the result was no signal (0 of 6 replicates; controls 1 of 18). With T28E+I34C+A101L+D106V the result was 330 nM (1 of 6 replicates; controls 0 of 18). For T28P+A101E, the assay gave 2.9 nM (6 of 6 replicates; controls 0 of 18). For S31D+R56Q+G61I+D106I, the assay gave 99 nM (1 of 6 replicates; controls 0 of 18).

With T28D+R56H+A101G+T104W+D106N the result was no signal (0 of 6 replicates; controls 0 of 18). Variant S31D+G103L+T104L+D106I gave no signal (0 of 6 replicates; controls 0 of 18). With S31E+S63E+F105T the result was 75 nM (2 of 6 replicates; controls 0 of 18). Variant T28H+S31T+G61I+R100E gave 63 nM (5 of 6 replicates; controls 0 of 18). With N30D+R100K+S107R the result was 82 nM (6 of 6 replicates; controls 1 of 18). For T28D+S63G+A101E+S107T, the assay gave 430 pM (6 of 6 replicates; controls 0 of 18). With T28E+G61I+R100K+A101T the result was 15 nM (6 of 6 replicates; controls 0 of 18).

For S53A+S63R+D106K, the assay gave no signal (0 of 6 replicates; controls 0 of 18). With S31D+I34W+D62P the result was no signal (0 of 6 replicates; controls 0 of 18). Variant N30G+S31E+G61T+A101F gave 5.2 nM (6 of 6 replicates; controls 0 of 18). For G26R+F59A, the assay gave 180 nM (3 of 6 replicates; controls 0 of 18). With T28E+G61A+R100Q+S107N the result was 8.7 nM (6 of 6 replicates; controls 0 of 18). With T28S+S31N+G61V+R100Q the result was 9.5 nM (5 of 6 replicates; controls 0 of 18). Variant R56F+G61H+S63A+A101G+F105T showed no signal (0 of 6 replicates; controls 0 of 18).

With S63N+A101V the result was 2.4 nM (6 of 6 replicates; controls 2 of 18). For T28D+R100E+T104W+D106N, the assay gave 1.2 µM (3 of 6 replicates; controls 1 of 18). Variant F27E+N30K+F59S+G61D gave 2.6 nM (6 of 6 replicates; controls 0 of 18).

The first 5 variants above that were never detected:

changes	Kd (apparent)	replicates with signal	signal with controls
T28C+N30P+S31E+F59S+K65A	no signal	0/6	0/18
S31D+G61S+T104Q	no signal	0/6	0/18
G26K+S31E+G103V+S107Q	no signal	0/6	0/18
T28P+G61K+R100K	no signal	0/6	0/18
G33L+G61D+R100Q+A101L+F105I	no signal	0/6	0/18

The authors averaged sequences with at least three values out of six and counted those with two or fewer as poor binders. Values of this round are not directly comparable with the first-round values of the same sequences. Three control strains display no target. For all heavy chain designs, 1% of the pairings with them gave a signal, with a median of 120 nM and one signal in twenty below 7.0 nM, so weak values seen in few replicates may be background. The control count says in how many pairings with the empty strains this scFv gave a signal. Some sequences occur more than once in the pool; their replicates are pooled.